Test results published in ChEMBL document CHEMBL6083286, “Discovery of ERD-12310A as an Exceptionally Potent and Orally Efficacious PROTAC Degrader of Estrogen Receptor α (ERα)” (J Med Chem, 2024).

Sequences of proteins named here, by UniProt entry; tags and fusion partners are left off. A change or cut given only in a name is not applied to a line headed by its entry.
UniProt Q96SW2: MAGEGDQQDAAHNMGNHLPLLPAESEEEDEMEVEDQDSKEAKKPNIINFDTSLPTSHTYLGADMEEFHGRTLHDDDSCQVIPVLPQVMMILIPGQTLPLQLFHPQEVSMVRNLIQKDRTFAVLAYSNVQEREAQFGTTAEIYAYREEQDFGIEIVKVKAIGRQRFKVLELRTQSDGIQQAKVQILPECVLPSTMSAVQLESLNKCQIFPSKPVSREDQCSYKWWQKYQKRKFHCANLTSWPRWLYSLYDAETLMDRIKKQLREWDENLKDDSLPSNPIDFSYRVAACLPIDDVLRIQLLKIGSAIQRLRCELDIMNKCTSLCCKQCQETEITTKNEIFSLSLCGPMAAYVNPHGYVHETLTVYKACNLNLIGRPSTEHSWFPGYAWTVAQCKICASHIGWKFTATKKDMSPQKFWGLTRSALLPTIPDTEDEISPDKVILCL

Target: Protein cereblon (Homo sapiens, UniProt Q96SW2)
Assay: Binding affinity to wild type GST-tagged human CRBN by HTRF assay

Row | SMILES | IC50 [nM]
1 | CN1CC2(CCNCC2)c2ccc3c(c21)CN([C@H]1CCC(=O)NC1=O)C3=O | 2700
2 | O=C1CC[C@H](N2Cc3c(ccc4c3NCC43CCNCC3)C2=O)C(=O)N1 | 2690
